Amino acid sequences for entries named in this document (tags omitted). Residues count along the entry.
UniProt Q96QZ7, 643-721 limits assumed: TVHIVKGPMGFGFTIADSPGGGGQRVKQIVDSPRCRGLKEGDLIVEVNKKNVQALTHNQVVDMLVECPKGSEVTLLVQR
UniProt Q96QZ7, 472-554 limits assumed: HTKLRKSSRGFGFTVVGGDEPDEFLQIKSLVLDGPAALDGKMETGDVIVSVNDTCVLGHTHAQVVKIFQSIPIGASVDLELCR

According to patent publication US10736971B2, “Peptide-based molecules for modulating car expression or accessibility and uses thereof” (Wright State University, priority 2015, dated 2020):

Legend:
[1] = tested on: primary human airway epithelia; assay: Epithelial integrity (TER, FITC-Dextran diffusion) and toxicity; type: cell-based
Method: In panel (A), epithelial cells were seeded on transwells and treated with a single dose of PBS, TAT-scramble or TAT-PDZ3 (TAT-CAR^Ex8 or TAT-ESAM) peptides (50 μM) daily for 16 days. Transepithelial resistance (TER) was measured every other day for 16 days to indicate the amount of epithelial polarization. […] Each condition represents the average of 4 replicates. (B) FITC-Dextran 4 kDa diffusion across treated epithelia in the absence of EDTA. […] (C) Pre-treatment with EDTA to disrupt tight junctions increased Dextran 4 kDa permeability in all conditions. FITC-Dextran 4 kDa was added to the apical membrane compartment and Dextran present in the basolateral media was measured and quantified. […] FITC-Dextran 70 kDa was added to the apical membrane compartment and Dextran in the basolateral media was measured and quantified.
(A) Primary human airway epithelial cells were treated with a single dose of PBS, TAT-scramble (50 μM), or TAT-PDZ1 peptides (50 μM) each day for 14 days. Transepithelial resistance (TER) was taken every other day for 14 days. No change in TER was noticeable upon treatment with TAT-PDZ1 peptides indicating similar epithelium formation. (B) FITC-Dextran 4 kDa diffusion across treated epithelia in the presence or absence of EDTA. There was no difference in Dextran 4 kDa diffusion among treatments indicating intact epithelial tight junctions. Pre-treatment with EDTA increased Dextran 4 kDa permeability similarly in all conditions indicating disruption of epithelial tight junctions. FITC-Dextran 4 kDa was added to the apical membrane and the diffused Dextran was collected from the basolateral media and measured. (C) There was no difference in Dextran 70 kDa diffusion among treatments indicating intact epithelial tight junctions. FITC-Dextran 70 kDa was added to the apical membrane and the diffused Dextran was collected from the basolateral media and measured.

[2] = tested on: MAGI-1-CAR^Ex8 interactions; assay: Co-immunoprecipitation of MAGI-1 with Flag-CAR^Ex8 in inducible MDCK-CAR^Ex8 epithelia; type: cell-based, canine; settings: 100 μM peptide, 200 ng/ml Dox for 24 hrs
Method: (§1) (A) Western blotting of MDCK cells treated with either TAT-CAR^Ex8 or control TAT-CAR^Ex8-AA. […] (C) Polarized MDCK cells were treated with either TAT-CAR^Ex8 or TAT-ESAM and the apical surface subjected to apical surface biotinylation, followed by neutravidin pull down and Western blot of apical surface proteins. […] (E) TAT-cell permeable peptides interrupt MAGI-1-CAR^Ex8 interactions. Western immunoblots showing immunoprecipitates (IP, left lanes) from inducible MDCK-CAR^Ex8 epithelia pretreated with TAT-CAR^Ex8 or control TAT-CAR^Ex8-AA. Stable MDCK-CAR^Ex8 cells were induced with 200 ng/ml Dox for 24 hrs. After overnight induction, cells were treated with either TAT-CAR^Ex8 or TAT-CAR^Ex8-AA (100 μM). CAR^Ex8 was immunoprecipitated using flag antibody. MAGI-1 was blotted to determine co-IP. […] Right lanes show cell lysate with no immunoprecipitation, acting as positive controls. (F) TAT-CAR^Ex8 and TAT-ESAM-mediated increase of apical CAR^Ex8 is reduced by the protein synthesis inhibitor cycloheximide (CHX). Western immunoblotting of CAR^Ex8 in MDCK epithelia treated with either TAT-CAR^Ex8 or TAT-ESAM in the presence or absence of the protein synthesis inhibitor CHX. TAT-PDZ3 binding peptides increase CAR^Ex8 protein level, the effect was reduced upon pre-treatment with CHX. *p<0.05.

MDCK epithelia = assay: Cell entry of TAT peptide (MALDI-TOF, TAMRA confocal microscopy) in MDCK epithelia; type: cell-based, canine; settings: 1 hr at 37° C.
Method: (§2) MALDI-TOF analysis of TAT-CAR^Ex8 peptides associate with (A) CHO cells (non-epithelial) and (B) MDCK epithelia. […] CHO or MDCK were incubated with either TAT-CAR^Ex8 or vehicle for 1 hr at 37° C. Cell pellets obtained were used for MALDI-TOF. TAT-CAR^Ex8 enters cells and peaked at m/z 2536. (C) CHO or (D) MDCK cells were treated with either vehicle control (PBS) or fluorescently labelled TAMRA-TAT-CAR^Ex8. Peptide was detectable within 1 h after incubation inside cells. White arrows indicate ER/Golgi region of cell with intense TAMRA (red) fluorescence. 60× oil immersion confocal microscopy, White line=10 μm.

CHO cells = assay: Cell entry of TAT peptide (MALDI-TOF, TAMRA confocal microscopy) in CHO cells; type: cell-based, Chinese hamster; settings: 1 hr at 37° C.
Method: as §2

CAR^Ex8 [3] = assay: Western blot of CAR^Ex8 in well differentiated primary human airway epithelia; type: cell-based; settings: versus control
From the text: (A) Western blotting from human airway epithelia treated with either TAT-scramble or TAT-PDZ1 peptides (TAT-E6 or TAT-NET1). […] Actin was used to confirm equal protein loading.

AdV [4] = assay: qPCR of AdV viral genome in primary human airway epithelia; type: cell-based; settings: versus control
MAGI-1 PDZ3 domain = assay: Ligand binding assay with purified MAGI-1 PDZ3 domain
From the text: (§3) Ligand binding assay between TAT-ESAM and purified MAGI-1 PDZ1 or PDZ-3.
(§4) MAGI-1 PDZ3 domain was used as a control.

MAGI-1 PDZ2 domain = MAGI-1 PDZ2 domain (Homo sapiens, UniProt Q96QZ7); assay: Ligand binding assay with MAGI-1 PDZ2 domain (control); settings: not shown
From the text: as §3

AdV [5] = assay: qPCR of AdV viral genome (transduction/entry) in MDCK epithelia; type: cell-based, canine; settings: versus control
From the text: (§5) MAGI-1 PDZ binding peptides (BP) can alter CAR^EX8 apical protein levels and AdV infection. […] A) MAGI-1 PDZ1 can rescue CAR^Ex8 expression while PDZ3 decreases CAR^EX8 expression. B) Peptides that bind to PDZ3 will prevent degradation of CAR^Ex8 and rescue CAR^EX8 expression and C) peptides that bind to PDZ1 will prevent rescue of CAR^Ex8 and […] CAR^Ex8 degradation. D) Apical surface-specific biotinylation of polarized MDCK epithelia treated with PDZ1 binding peptide decreases apical levels of CAR^EX8 while PDZ3 binding peptide increase apical CAR^EX8, relative to control. E) Treatment with PDZ3 binding peptide increases while PDZ1 binding peptide decreases AdV5-β-Gal entry as determined by qPCR for viral genomes (Vg). F) AdV5-Cre infection turns cells from red (uninfected) to green (infected) in tDT-mouse airway epithelial cells. Baseline infection in control-peptide treated airway epithelia show an even distribution of uninfected red cells and infected green cells.
(A) Western blotting of MDCK cells treated with either TAT-CAR^Ex8 or control TAT-CAR^Ex8-AA. […] (C) Polarized MDCK cells were treated with either TAT-CAR^Ex8 or TAT-ESAM and the apical surface subjected to apical surface biotinylation, followed by neutravidin pull down and Western blot of apical surface proteins. […] (E) TAT-cell permeable peptides interrupt MAGI-1-CAR^Ex8 interactions. […]

CAR^Ex8 [6] = assay: Western blot / apical surface biotinylation of CAR^Ex8 in MDCK epithelia; type: cell-based, canine
From the text: as §5, §1
(A) Western Blotting from MDCK epithelia treated with either TAT-scramble or TAT-PDZ1 peptides (TAT-E6 or TAT-NET1). […] Actin was used to confirm equal protein loading. […] (C) TAT-PDZ1 binding peptides decrease CAR^Ex8 by inducing degradation of the translated protein as shown by Western Blotting of cell lysate from MDCK epithelia treated with TAT-PDZ1 peptides in the presence or absence of the proteosomal and RIP inhibitor, MG-132. […]

CAR^Ex8 [7] = assay: Immunocytochemistry of CAR^Ex8 in polarized MDCK cells; type: cell-based, canine
From the text: CAR^Ex8 is localized mainly at the apical surface of polarized MDCK cells. […] Red (CAR^Ex8), Green (MAGI-1, a junctional protein), Blue (nucleus, DAPI). 60× oil immersion confocal microscopy.
(A) CAR^Ex8 (red) localizes mainly at the apical membrane of MDCK epithelial cells (see xz section). […] 60× oil immersion confocal microscopy.

MAGI-1 PDZ1 domain = MAGI-1 PDZ1 domain (Homo sapiens, UniProt Q96QZ7); assay: Ligand binding assay with purified MAGI-1 PDZ1 domain
From the text: as §3, §4

AdV5-Cre = AdV5-Cre intranasal infection of tdT mice; type: in vivo, mouse
From the text: as §5
Analysis of lung cryosections from tdT mice pretreated with A) No virus, B) Control (PBS or TAT-CAR^Ex8-AA), or C) PDZ3 TAT-ESAM binding peptide 4 h prior to AdV5-Cre intranasal infection. 20× confocal microscopy. (D) Quantitative analysis of GFP expressing cells in lung cryosections from tdT mice with no virus, pre-treated with control, or PDZ3 binding TAT-ESAM peptides. (E) Quantification of total GFP/Total RFP fluorescence in lung section of different treated conditions by image J analysis. […] Data are average of quantification from 10 sections. *p<0.05.
(A) Quantitative RT-PCR for GFP mRNA expression after isolation of total RNA from lung tissue of control or peptide treated mice. (B) QPCR of viral genome copies in lung tissue from control or peptide treated mice.
Analysis of lung cryosections from tdT mice pretreated with A) No virus, B) Control (PBS), C) PDZ1 TAT-NET1 binding peptide, 4 h prior to AdV5-Cre intranasal infection in B) and C). 20× confocal microscopy. D) Quantitative analysis of the number of GFP expressing cells in lung cryosections from tdT mice with no virus, pre-treated with control PDZ1 TAT-NET1 peptides. E) Quantification of total GFP/Total RFP fluorescence in lung section of different treated conditions by image J analysis. […] Data are average of quantification from 10 sections. *p<0.05.
(A) In tdT tomato mice, all cells contain red fluorescent Tomato protein and fluoresce red. Upon expression of cre recombinase via AdV-Cre infection, infected cells cleave out the tdT gene and express GFP making infected cells fluoresce green. […] F) Quantitation of GFP positive cells per field of view. G) Quantitative RT-PCR for GFP mRNA relative to uninfected tdT mice. […]

## CC[C@H](C)[C@H](NC(=O)CNC(=O)[C@H](CC(=O)O)NC(=O)[C@@H](NC(=O)[C@H](CCCCN)NC(=O)[C@H](Cc1ccc(O)cc1)NC(=O)[C@H](CCCNC(=N)N)NC(=O)[C@H](CCCNC(=N)N)NC(=O)[C@H](CCCNC(=N)N)NC(=O)[C@H](CCC(N)=O)NC(=O)[C@H](CCCNC(=N)N)NC(=O)[C@H](CCCNC(=N)N)NC(=O)[C@H](CCCCN)NC(=O)[C@H](CCCCN)NC(=O)[C@H](CCCNC(=N)N)NC(=O)CNC(=O)[C@@H](N)Cc1ccc(O)cc1)[C@@H](C)O)C(=O)N[C@H](C(=O)N[C@H](C(=O)N[C@H](C(=O)O)C(C)C)C(C)C)[C@@H](C)O [TAT-CAR^Ex8]
[1]; 50 μM daily for 16 days, versus control
  Transepithelial resistance (TER): No difference
[1]; TAT-PDZ3 peptide study
  FITC-Dextran 70 kDa diffusion across epithelia: no difference
[1]; absence of EDTA, TAT-PDZ3 peptide study
  FITC-Dextran 4 kDa diffusion across epithelia: no difference
[1]; primary human airway epithelia
  Toxicity to epithelia: no overt toxicity
[2]
  MAGI-1 coimmunoprecipitated with Flag-CAR^Ex8: marked reduction
MDCK epithelia
  Peptide entry into cells (MALDI-TOF of cell pellets): enters cells
CHO cells
  Peptide entry into cells (MALDI-TOF of cell pellets): enters cells
CAR^Ex8 [3]
  CAR^Ex8 protein level (Western blotting): increased
AdV [4]
  AdV genomic transduction / entry (qPCR of viral genome): significant increase
MAGI-1 PDZ3 domain
  Kd: 4 ± 2 nM
MAGI-1 PDZ2 domain
  Binding to MAGI-1 PDZ2: Lack of binding
AdV [5]
  AdV genomic transduction / entry (qPCR of viral genome): significant increase
CAR^Ex8 [6]; MDCK epithelia
  CAR^Ex8 protein level (Western blotting): marked increase
CAR^Ex8 [6]; MDCK epithelia, with CHX
  Peptide-mediated increase of CAR^Ex8 upon pre-treatment with cycloheximide (CHX): reduced
CAR^Ex8 [6]; polarized MDCK epithelia
  Apical CAR^Ex8 (apical surface biotinylation): increase
CAR^Ex8 [7]; polarized MDCK
  CAR^Ex8 immunolocalization / cellular protein level: upregulated in a vesicular pattern within the cytoplasm and at the apical surface

## CC(C)C[C@H](NC(=O)[C@@H](NC(=O)[C@H](CCC(=O)O)NC(=O)[C@H](CCCCN)NC(=O)[C@H](CCCCN)NC(=O)[C@H](CCCCN)NC(=O)CNC(=O)CNC(=O)[C@H](CCC(N)=O)NC(=O)[C@@H]1CCCN1C(=O)[C@@H]1CCCN1C(=O)[C@H](CCCNC(=N)N)NC(=O)[C@H](CCCNC(=N)N)NC(=O)[C@H](CCCNC(=N)N)NC(=O)[C@H](CCC(N)=O)NC(=O)[C@H](CCCNC(=N)N)NC(=O)[C@H](CCCNC(=N)N)NC(=O)[C@H](CCCCN)NC(=O)[C@H](CCCCN)NC(=O)[C@H](CCCNC(=N)N)NC(=O)CN)[C@@H](C)O)C(=O)N[C@H](C(=O)O)C(C)C [TAT-NET1]
MAGI-1 PDZ1 domain
  Kd: 28 ± 11 nM
CAR^Ex8 [3]
  CAR^Ex8 protein level (Western blotting): marked decrease
AdV [4]
  AdV genomic transduction / entry (qPCR of viral genome): significant decrease
AdV [5]
  AdV genomic transduction / entry (qPCR of viral genome): significant decrease
CAR^Ex8 [6]; MDCK epithelia
  CAR^Ex8 protein level (Western blotting): marked decrease
AdV5-Cre; AdV5-Cre intranasal infection, versus control
  GFP expression (GFP positive cells per field of view, GFP mRNA): decreased
AdV5-Cre; peptide 4 h prior to AdV5-Cre intranasal infection
  GFP expression in lung cryosections (GFP expressing cells, total GFP/Total RFP fluorescence): significantly lower
AdV5-Cre; versus control
  GFP mRNA expression in lung tissue (quantitative RT-PCR): significant decrease
  Viral genome copies in lung tissue (QPCR): significant decrease
CAR^Ex8 [7]; MDCK, 50 μM
  Effect on junctional staining of MAGI-1: minor to no effect
  Immunolocalization of endogenous CAR^Ex8: delocalization of CAR^Ex8 to the nuclear compartment
